What was measured:
PARP-1 and lamin B1 = assay: Immunoblotting of caspase cleavage of PARP-1 and lamin B1; type: cell-based, mouse; conditions: bax^−/−bak^−/− cells, lysed after 8 h, FIG. 4C
HMGB1 = HMGB1 localization and release (immunofluorescence, immunoblotting); conditions: 0.5 mM MNNG
parp-1^−/− MEFs = assay: Cell death assay by PI exclusion, parp-1^−/− MEFs; conditions: parp-1^−/− cells
isolated DNA = assay: Assaying isolated DNA for strand breaks; conditions: cells growing in the presence or absence of IL-3
wild-type cells = assay: Transmission electron microscopy of cell death morphology, wild-type cells; conditions: 0.5 mM MNNG or 2 μM staurosporine, 9 h
wild-type MEFs = assay: Cell death assay by PI exclusion, wild-type MEFs
bax^−/−bak^−/− cells = assay: Transmission electron microscopy of cell death morphology, bax^−/−bak^−/− cells; conditions: 0.5 mM MNNG or 2 μM staurosporine, 9 h
[1] = Determination of cellular NAD; type: cell-based, mouse
p53^−/− MEFs = assay: Cell death assay by PI exclusion, p53^−/− MEFs; type: cell-based, mouse; conditions: 20 h following treatment, FIG. 1
bax^−/−bak^−/− MEFs = assay: Cell death assay by PI exclusion, bax^−/−bak^−/− MEFs; type: cell-based, mouse
cytochrome c = assay: Cytochrome c immunofluorescence; conditions: 6 h, FIG. 4B
[2] = tested on: Mouse bone marrow derived macrophages; assay: TNFα production by macrophages given culture medium of treated MEFs; type: cell-based; conditions: TNFα 24 h later
ATP = assay: Determination of cellular ATP; type: cell-based, mouse; conditions: for cellular ATP level: 30 min treatment, FIG. 2C
[3] = tested on: IL-3-dependent hematopoietic bax^−/−bak^−/− cells; assay: Cell death assay by PI exclusion, IL-3-dependent bax^−/−bak^−/− cells; type: cell-based, mouse
[4] = tested on: Clone HP17 (bax^−/−bak^−/−, shPARP-1) MEFs; assay: Cell death assay by PI exclusion, Clone HP17 MEFs
PARP = PARP activation by immunoblotting of poly(ADP-ribose) (PAR); conditions: for PARP activation (increase of poly(ADP-ribose) polymers): MNNG 0.5 mM, FIG. 2A; for poly(ADP-ribosyl)ation upon treatment: versus vector, FIG. 3B
[5] = IL-3-dependent cells, 0.5 mM MNNG 15 min, subcellular fractionation, FIG. 6E

CN(N=O)C(=N)N[N+](=O)[O-]
biochemical apoptotic hallmarks incl. caspase cleavage of PARP-1 and lamin B1 (PARP-1 and lamin B1): none of the biochemical apoptotic hallmarks tested | HMGB1 localization (HMGB1; bax^−/−bak^−/− MEFs, 6 hours following treatment): translocation of HMGB1 from nucleus to the cytosol | HMGB1 release into extracellular environment (HMGB1; wild-type and bax^−/−bak^−/− MEFs, 16 hours after treatment): HMGB1 could be found in the extracellular environment | cells alive (parp-1^−/− MEFs; 0.25 mM MNNG, three days after the treatment, FIG. 3G): over 30% | cells died (parp-1^−/− MEFs; within 20 hours following 0.5 mM MNNG, FIG. 3E/F): 30% | DNA damage (strand breaks) (isolated DNA): equivalent amounts of DNA damage | morphologic features of cell death by electron microscopy (wild-type cells): morphologic changes characteristic of necrosis | sensitivity to MNNG-induced cell death, confluent serum-deprived versus subconfluent with serum (wild-type MEFs; wild-type MEFs, 0.5 mM MNNG 15 min, 24 h, FIG. 6B): less sensitive | cell death (wild-type MEFs; wild-type cells, within 20 hours following 0.5 mM MNNG, FIG. 3E/F): All wild-type and bax^−/−bak^−/− cells died | morphologic features of cell death by electron microscopy (bax^−/−bak^−/− cells): morphologic changes characteristic of necrosis | cellular NAD level ([1]; IL-3-dependent bax^−/−bak^−/− cells, with and without IL-3, FIG. 6D): decreased to a similar extent | cytosolic NAD [1, 5]: reduced cytosolic NAD to minimal levels | mitochondrial NAD [1, 5]: not significantly affected | cellular NAD level ([1]; bax^−/−bak^−/− cells, 30 min treatment, FIG. 2B): dose-dependent decrease | cellular NAD level ([1]; wild-type cells, 30 min treatment, FIG. 2B): dose-dependent decrease | cell death (cell survival by PI exclusion) (p53^−/− MEFs): as sensitive as wild-type cells | sensitivity to MNNG-induced cell death, confluent serum-deprived versus subconfluent with serum (bax^−/−bak^−/− MEFs; bax^−/−bak^−/− MEFs, 0.5 mM MNNG 15 min, 24 h, FIG. 6B): less sensitive | cell death (cell survival by PI exclusion) (bax^−/−bak^−/− MEFs; bax^−/−bak^−/− MEFs, 20 h following treatment, FIG. 1): as sensitive as wild-type cells | cell death (bax^−/−bak^−/− MEFs; bax^−/−bak^−/− cells, within 20 hours following 0.5 mM MNNG, FIG. 3E/F): All wild-type and bax^−/−bak^−/− cells died | cell death (PI exclusion) (bax^−/−bak^−/− MEFs; vector control bax^−/−bak^−/− cells, 20 h after treatment, FIG. 3D): killed all | cytochrome c distribution (cytochrome c; bax^−/−bak^−/− cells): no change of cytochrome c distribution pattern was observed | cytochrome c release (cytochrome c; wild-type cells (BMK)): Cytochrome c release was observed in some cells | TNFα production by macrophages ([2]; culture medium from treated bax^−/−bak^−/− MEFs, MNNG 0.5 mM 15 min): induced TNFα production | TNFα production by macrophages ([2]; culture medium from treated wild-type MEFs, MNNG 0.5 mM 15 min or STS 2 μM 2 h): induced TNFα production | ATP levels (ATP; Clone HP17, 30 min treatment, FIG. 3C): maintained | total cellular ATP level (ATP; IL-3-dependent bax^−/−bak^−/− cells cultured in the presence of IL-3, FIG. 6D): drastically decreased | total cellular ATP level (ATP; IL-3-dependent bax^−/−bak^−/− cells deprived of IL-3, p<0.01, FIG. 6D): preserved | cellular ATP level (ATP; bax^−/−bak^−/− cells): dose-dependent decrease | cellular ATP level (ATP; wild-type cells): dose-dependent decrease | viability over time ([3]; 0.5 mM MNNG in the presence of IL-3): continued to decline over the first 72 hours | cell death (PI exclusion) ([3]; IL-3-deprived cells (2 d), 24 h after 15 min treatment, FIG. 6A): resistant | cell viability ([3]; IL-3-deprived cells, 0.5 mM MNNG, IL-3 added 24 hour after treatment, viability 48 hours later): greater than 85% | cell death (PI exclusion) ([3]; IL-3 stimulated cells adapted to low glucose (withdrawn from glucose over 48 hours), FIG. 7C): resistance to MNNG-induced death that was comparable to that of IL-3-deprived cells | cell death (PI exclusion) ([3]; cells proliferating in response to IL-3, 24 h after 15 min treatment, FIG. 6A): killed by MNNG in a dose-dependent manner | cells remained viable ([4]; HP17 cells, 0.25 mM MNNG, three days after the treatment, FIG. 3G): 90% | cell death ([4]; HP17 cells, within 20 hours following 0.5 mM MNNG, FIG. 3E/F): essentially no cell death | cell death (PI exclusion) ([4]; clone HP17, 20 h after treatment, FIG. 3D): no cell death was observed | PARP activation (poly(ADP-ribosyl)ation), vegetative versus proliferating cells (PARP; IL-3-dependent bax^−/−bak^−/− cells with or without IL-3, MNNG 15 min, FIG. 6C): Equivalent increases in poly(ADP-ribosyl)ation | PARP activation (increase of poly(ADP-ribose) polymers) (PARP; bax^−/−bak^−/− MEFs): activated equally | poly(ADP-ribosyl)ation upon treatment (PARP; clone HP11 (bax^−/−bak^−/− MEF, PARP-1 shRNA, moderate knock-down)): moderately decreased | poly(ADP-ribosyl)ation upon treatment (PARP; clone HP17 (bax^−/−bak^−/− MEF, PARP-1 shRNA)): significantly decreased | PARP activation (increase of poly(ADP-ribose) polymers) (PARP; wild-type MEFs): activated equally
